Experimental data published in publication PMC7549103 (ACS Medicinal Chemistry Letters, 2020).

Amino acid sequences for entries named in this document (tags omitted).
UniProt Q07817, whole entry: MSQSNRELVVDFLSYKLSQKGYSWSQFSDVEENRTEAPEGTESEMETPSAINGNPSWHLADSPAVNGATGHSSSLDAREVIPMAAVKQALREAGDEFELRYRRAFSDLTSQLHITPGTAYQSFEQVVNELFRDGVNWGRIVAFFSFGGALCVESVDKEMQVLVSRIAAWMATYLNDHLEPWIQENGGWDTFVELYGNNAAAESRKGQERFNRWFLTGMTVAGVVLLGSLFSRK

Biological target: GST-BCL-XL (Homo sapiens, UniProt Q07817)
Type: binding

Cc1c(-c2ccc(N3CCc4cccc(C(=O)Nc5nc6ccccc6s5)c4C3)nc2C(=O)O)cnn1Cc1ccccc1 [Compound 10]
improvement in target affinity relative to parent 6: approximately 7 fold
